Several values for one entry are separate records, joined by “and”; a condition that tells them apart may be missing. Equal values may be shown once. The list shows a part of the results, in another mix than the full data. Records with an inconclusive call do not appear. Activity calls are given as the source filed them. Calls follow the shape of the full dose curve.
% is scaled to controls: 0 for no effect and ±100 for the full control effect.

Chains of the proteins cited; added tags and fusions are not shown. Lines headed by an entry give the natural chain unless they say otherwise; changes in a name come on top.
UniProt P11229: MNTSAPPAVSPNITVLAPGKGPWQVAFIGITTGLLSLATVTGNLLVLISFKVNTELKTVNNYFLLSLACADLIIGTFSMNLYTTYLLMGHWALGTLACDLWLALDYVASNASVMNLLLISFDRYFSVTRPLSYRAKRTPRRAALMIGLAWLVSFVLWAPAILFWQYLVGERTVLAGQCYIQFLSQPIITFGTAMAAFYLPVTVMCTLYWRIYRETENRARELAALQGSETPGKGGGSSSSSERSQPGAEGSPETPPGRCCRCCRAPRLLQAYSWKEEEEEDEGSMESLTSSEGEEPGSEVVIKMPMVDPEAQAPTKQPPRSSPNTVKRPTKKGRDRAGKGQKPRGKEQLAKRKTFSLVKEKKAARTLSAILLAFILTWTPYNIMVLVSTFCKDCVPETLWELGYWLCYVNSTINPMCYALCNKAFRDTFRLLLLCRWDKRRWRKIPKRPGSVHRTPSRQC

One test deals with Muscarinic acetylcholine receptor M1 (Homo sapiens) (UniProt P11229). In words: Cholinergic receptor muscarinic 1 (CHRM1) small molecule antagonists, cell-based qHTS assay (AID 1963588). Also: nearly all actives have a fitted effect of over 40% in size. The settings on record: CHRM1-CHO antagonist mode, calcium flux fluorescence; at 12.6 µM (top of the series). From the text: National Center for Advancing Translational Sciences [NCATS]
Division of Preclinical Innovation [DPI]
U.S. Environmental Protection Agency [EPA]
National Institutes of Environmental Health Sciences [NIEHS]
National Toxicology Program [NTP]
U.S. Food and Drug Administration [FDA]
The CHRM1 is a muscarinic receptor. This receptor plays a crucial role in learning and memory processes and has long been identified as a promising therapeutic target for the improvement of cognitive decline in Alzheimer's disease (AD). The CHRM1-CHO cell line stably expressing human muscarinic acetylcholine receptor M1 (CHRM1) can be used for screening agonists and antagonists of interactions between CHRM1 and its ligands. The CHRM1-CHO Calcium Flux Assay is a homogeneous fluorescence-based assay for detecting the intracellular calcium level using FDSS kinetic plate reader system.
Tox21 Assay Protocol Summary:
CHRM1-CHO cells were dispensed at 1000 cells/3uL/well in 1536-well black-clear bottom plates using a Multidrop Dispenser. After the assay plates were incubated at a 37 C/5% CO2 incubator for 18 h, 3 uL of Dye Loading Buffer was transferred to the assay plate by a Flying Reagent Dispenser. The assay plates were incubated at 37 C for 1h. For antagonist mode, 23 nL of compounds dissolved in DMSO, positive controls or DMSO only was transferred to the assay plate by a pin tool. After 5 min incubation at room temperature, 1.5 uL of acetylcholine at 50nM was added to each well. The fluorescence intensity in the plates was measured using FDSS 7000EX kinetic plate reader for 3 min at 1 sec intervals. Each test compound was measured at 15 concentrations in three independent runs.
(In qHTS, concentration-response curves come from the screen itself.)
`CCC(C)(OOC(C)(C)C)OOC(C)(C)C`: the activity, negative = inhibition is inactive: 13.8%.

Staying with this test, now noted: CHRM1-CHO antagonist mode, calcium flux fluorescence; at 28.3 µM (top of the series).
Regarding `CN(C(=O)Cc1ccccc1)[C@H]1CC[C@@]2(CCCO2)C[C@@H]1N1CCCC1`, the activity, negative = inhibition is inactive: -20.6%.
Same read-out and setting: for `NC(=O)Nc1ccc([As](=O)(O)O)cc1` the value was inactive: -13.7%; for `C[C@H]1C(=O)O[C@@H]2CCN3CC=C(COC(=O)[C@](C)(O)[C@]1(C)O)[C@H]23`, inactive: 51.5%.
Still for that read-out and setting: the result for `CN(C(=O)Cc1ccc(Cl)c(Cl)c1)[C@H]1CC[C@@]2(CCCO2)C[C@@H]1N1CCCC1` reads inactive: -9.6%; that for `CCN(CC)CCOC(=O)C(O)(c1ccccc1)c1ccccc1`, inactive: -32%.

Staying with this test, now noted: CHRM1-CHO antagonist mode, calcium flux fluorescence; at 61.5 µM (top of the series).
Turning to `O=[N+]([O-])c1ccc([N+](=O)[O-])cc1`, the activity, negative = inhibition was inactive: 19.1%.
On the same count and under the same terms, the result for `NC(=O)Nc1ccc([As](=O)(O)O)cc1` reads inactive: 1.47%.
Still for that read-out and setting: for `CC(C)OP(=S)(OC(C)C)SCCNS(=O)(=O)c1ccccc1` the value was inactive: 3.82%; for `O=C(Cl)Oc1ccccc1`, inactive: 0.973%.
On the same count and under the same terms, the result for `COC(=O)Cl` reads inactive: 2.56%; that for `CCOC(=O)Cl`, inactive: 0.158%.
Consider `CC(C)CCCCCCCOP(OCCCCCCCC(C)C)Oc1ccccc1`, for which the activity, negative = inhibition is inactive: 22.4%.
Same read-out and setting: for `O=[As]c1ccccc1` (stereo not drawn) the value was inactive: 11.7%; for `O=P(Cl)(Cl)c1ccccc1`, inactive: 1.17%.
On the same count and under the same terms, for `O=[P+](Oc1ccccc1)Oc1ccccc1` the value was inactive: -4.44%; for `O=[p+]1oc2ccccc2c2ccccc21` (stereo not drawn), inactive: 7.43%; for `CN(N=O)C(=N)N[N+](=O)[O-]`, inactive: -16.8%.
The same measure, in the same setting: for `CCCCCCCCCCCCCC[P+](CCCCCC)(CCCCCC)CCCCCC` the value was inactive: 11.6%; for `C[C@H]1C(=O)O[C@@H]2CCN3CC=C(COC(=O)[C@](C)(O)[C@]1(C)O)[C@H]23`, inactive: -14.2% and inactive: -14.9%; for `Cc1cc([N+](=O)[O-])cc([N+](=O)[O-])c1O`, inactive: -7.09% and inactive: 20.2%.
As to `CCCCOP(OCCCC)OCCCC`, the activity, negative = inhibition was inactive: 1.02%.
On the same count and under the same terms, for `ClP(Cl)c1ccccc1` the value was inactive: -2.98%; for `CCCCC(CC)CO[P+](=O)OCC(CC)CCCC` (stereo not drawn), inactive: 12.4%.
The same measure, in the same setting: the result for `O=P(Cl)(Oc1ccccc1)Oc1ccccc1` reads inactive: 8.31%; that for `CN(C(=O)Cc1cccc2occc12)[C@H]1CC[C@@]2(CCCO2)C[C@@H]1N1CCCC1`, inactive: -2.88%; that for `Cc1cc([N+](=O)[O-])c(O)c([N+](=O)[O-])c1`, inactive: 13.6%.
On the same count and under the same terms, for `N#CSc1ccc([N+](=O)[O-])cc1[N+](=O)[O-]` the value was inactive: -2.41%; for `CCNC(C)Cc1ccc2c(c1)OCO2` (stereo not drawn), inactive: -16.1%.
Consider `O=[N+]([O-])c1ccc(S(=O)(=O)O)c([N+](=O)[O-])c1`, for which the activity, negative = inhibition was inactive: 7.86%.
The same measure, in the same setting: for `CCCCO[P+](=O)OCCCC` the value was inactive: 33.4% and inactive: 2.68%.
The same measure, in the same setting: for `O=C(Cl)OCCOC(=O)Cl` the value was inactive: -10.7%; for `CCOP(=S)(CC)Sc1ccccc1` (stereo not drawn), inactive: -6.36%.

The values are drawn from PubChem BioAssay (Tox21).
